# Values of other authors as cited in patent US20060136023A1 (priority 2004, published 2006).
# Test system: opiate receptor
smiles,measurement,value
CN1CC[C@]23c4c5ccc(O)c4O[C@H]2[C@@H](O)C=C[C@H]3[C@H]1C5 [morphine],"affinity for the opiate receptor, one enantiomer versus the other",(−) isomer of morphine has much greater affinity
